The values below come from publication PMC7211195, “The influence of the coadministration of the p-glycoprotein modulator elacridar on the pharmacokinetics of lapatinib and its distribution in the brain and cerebrospinal fluid” (Investigational New Drugs, 2019).

This data set can be described thus: Lapatinib pharmacokinetics in rat blood plasma (BP), HPLC-MS/MS, noncompartmental analysis. Type of data set: in vivo, rats. Here is the method: This study was conducted on rats, which are a promising model to predict P-gp-based drug-drug interactions at the human BBB [15]. The animals were allowed to acclimate for one week before the beginning of the experiments. Adult male Wistar-strain rats (weight 470–525 g) were used in the study. The animals were maintained under standard breeding conditions with a 12/12 h light-dark cycle (lights on at 6.00 a.m., lights off at 6.00 p.m.) at constant room temperature (23 ± 2 °C), relative humidity (55 ± 10%) and ad libitum access to food and water. The experimental protocol for this study was reviewed and approved by the Local Ethics Committee. To obtain consistent data, the study was based on the required minimum number of animals and observation time. […] Three rats were used at each time point (n = 3). In total, the research was conducted on 66 animals (n = 33 in the experimental group and n = 33 in the control group).
Elacridar was freshly dissolved in a vehicle at an initial concentration of 20 mg/mL. […] A volume of 80 μL of blood was collected from each rat by cutting off a piece of its tail. The blood samples were collected into heparinized test tubes at the following time points: […], and they were immediately centrifuged at 2880 g for 10 min at 4 °C. The anaesthetized rats (anaesthetized by intramuscular administration of 50 mg/kg ketamine and 10 mg/kg xylazine) were prepared for cisterna magna puncture. The hair over the puncture was removed and the skin was disinfected with alcohol. The animals were placed in a recumbent position with an elevated rear part of the body. The animals’ heads were slightly flexed and immobilized with the operator’s left hand. The space between the occiput rostrally and the atlas (C1) of the spinal column caudally was gently palpated with the left thumb. A 0.7 × 20 G needle with polyethylene tubing (Terumo Poland, Warsaw, Poland) was gently inserted at an approximate angle of 80–90° through the skin with the operator’s right hand into the midsagittal region. […]

Where [1] appears, read: blood plasma, lapatinib 100 mg/kg oral alone (IIL).

Turning to `CS(=O)(=O)CCNCc1ccc(-c2ccc3ncnc(Nc4ccc(OCc5cccc(F)c5)c(Cl)c4)c3c2)o1` [lapatinib, N-{3-Chloro-4-[(3-fluorobenzyl)oxy]phenyl}-6-[5-({[2-(methylsulfonyl)ethyl]amino}methyl)-2-furyl]-4-quinazolinamine], under setting [1], the AUMC0-t was 138,877.66 ± 11,299.79 ng × h^2/mL and the “AUMC0-∞” value is on record as 404,148.02 ± 215,793.89 ng × h^2/mL. Also, the “Clapatinib in BP, single rat” value (lapatinib 100 mg/kg + elacridar, 8 h, listed as Lapatinib) was 775 ng/mL.
